# Results taken from US20130197089A1, “COMPOSITIONS FOR THE TREATMENT OF ACTINIC KERATOSIS” (DOLORGIET GMBH & CO. KG, priority 2012, published 2013).
# Columns and labels:
# [1] = tested on: actinic keratosis lesions; test: Preliminary study: 5% ibuprofen gel vs 3% diclofenac gel in patients with actinic keratosis; settings: scale -2 to +4
# Method: The study was performed according to the relevant criteria and was approved by the ethics commission of the dermatological society of Slovakia.
# (§1) The application frequency was twice a day. The success of the treatment was evaluated after 30, 60 and 90 days.
# (§2) When included in the study, the severity of the lesions was evaluated according to the so-called BSI (baseline severity index) score from 0 to 3. Patients having a BSI score of 1 and 2 were exclusively included in the study.
# BSI score (baseline severity index score 1-3) • 0=no actinic keratosis (AK) visible • 1=clearly visible lesion • 2=many small, moderately thick lesions or a few large scaly lesions visible • 3=many thick hypertrophic lesions that are clearly visible and palpable with clear bounds.
# (§3) The main target parameters within the scope of effectiveness were the total number of lesions in the treatment area and the IGII (investigator global improvement index) score from −2 to +4. From round 1, the evaluations were always done in comparison with the preliminary round.
# (§4) IGII (investigator global improvement index) • −2 significant worsening • −1 slight worsening • 0 unchanged • 1 slight improvement • 2 improvement • 3 significant improvement • 4 complete healing
# The IGII was measured between each two rounds.
# [2] = tested on: actinic keratosis lesions; test: Second study: 10% ibuprofen gel vs 3% diclofenac gel in patients with actinic keratosis; settings: for Investigator global improvement index (IGII): scale -2 to +4
# Method: as §1, §2, §3, §4
# The design of the study was the same as that of the first study.
# [3] = Forehead, V0 (start of the study)
smiles,measurement,setting,value
"O=C(O)Cc1ccccc1Nc1c(Cl)cccc1Cl [Diclofenac, diclofenac]",Investigator global improvement index (IGII),"[1]; Face, V0 (start of the study)",0
same,Investigator global improvement index (IGII),"[1]; Face, V3 (after 90 days of treatment), 5% ibuprofen gel or 3% diclofenac gel",1.7
same,Investigator global improvement index (IGII),[1]; [3],0
same,Investigator global improvement index (IGII),"[1]; Forehead, V3 (after 90 days of treatment), 5% ibuprofen gel or 3% diclofenac gel",1.55
same,Investigator global improvement index (IGII),"[1]; Hand, V0 (start of the study)",0
same,Investigator global improvement index (IGII),"[1]; Hand, V3 (after 90 days of treatment), 5% ibuprofen gel or 3% diclofenac gel",1
same,Investigator global improvement index (IGII),"[1]; Scalp, V0 (start of the study)",0
same,Investigator global improvement index (IGII),"[1]; Scalp, V3 (after 90 days of treatment), 5% ibuprofen gel or 3% diclofenac gel",1.75
same,Therapeutic result in treating slight and moderate keratosis lesions (in words),"[2]; 10% ibuprofen gel or 3% diclofenac gel, 90 days",good
same,Investigator global improvement index (IGII),"[2]; Face, V0 (start of the study)",0
same,Investigator global improvement index (IGII),"[2]; Face, V3 (after 90 days of treatment), 10% ibuprofen gel or 3% diclofenac gel",2.17
same,Investigator global improvement index (IGII),[2]; [3],0
same,Investigator global improvement index (IGII),"[2]; Forehead, V3 (after 90 days of treatment), 10% ibuprofen gel or 3% diclofenac gel",2.3
same,Investigator global improvement index (IGII),"[2]; Hand, V0 (start of the study)",0
same,Investigator global improvement index (IGII),"[2]; Hand, V3 (after 90 days of treatment), 10% ibuprofen gel or 3% diclofenac gel",2.4
